Source: PubChem BioAssay AID504891 (National Center for Advancing Translational Sciences (NCATS), 2011)
Where “and” joins values, the source holds several entries; their conditions need not be identical. Equal values may be shown once. The list shows a part of the results, in another mix than the full data. Some results for these compounds are left out of this collection, so the calls shown say nothing about other tests. Results filed as inconclusive are left out. Calls of active or inactive are those of the source. The call rests on the fitted dose curve; in most records, active means well fitted inhibition curve with a large enough effect in the polarisation, with a control signal flat (not every such curve was filed as active); inconclusive means small, poorly fitted or top-dose-only effect, or effect the other way, or a change in a side signal; inactive means no such curve, though single readings can be large or run the other way; the % refers to the polarisation.

Sequences of proteins named here, by UniProt entry; tags and fusion partners are left off.
UniProt Q13526, whole entry: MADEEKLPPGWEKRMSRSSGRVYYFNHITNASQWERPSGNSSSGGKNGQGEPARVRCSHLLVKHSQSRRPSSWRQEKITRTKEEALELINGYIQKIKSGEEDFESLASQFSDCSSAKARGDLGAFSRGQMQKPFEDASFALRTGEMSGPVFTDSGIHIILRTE

The molecules below were run against Peptidyl-prolyl cis-trans isomerase NIMA-interacting 1 (Homo sapiens) (UniProt Q13526) (assay: qHTS Assay to Find Inhibitors of Pin1). Conditions: Pin1 FP peptide displacement, HiFluor488, 10 min; at 115 µM (top of the series).
On the % scale 0 is the no-effect control and ±100 the full control effect.

Question: For O=C(NCC1(N2CCCCC2)CCCCC1)c1cc(F)c(F)cc1Cl, which activity, negative = inhibition is on record?
Answer: Its activity, negative = inhibition is inactive: -5.11%.

Question: How did the activity, negative = inhibition turn out when C=CCN1CCN(CCOC(=O)C(O)(c2ccccc2)c2ccccc2)CC1 was run?
Answer: The activity, negative = inhibition was inactive: 7.73%.

Question: With O=C(NCC1(N2CCCCC2)CCCCC1)c1cccc(Br)c1 as the molecule, how does the activity, negative = inhibition read?
Answer: Its activity, negative = inhibition is inactive: 0.477%.

Question: For CCN1CCCC(OC(=O)C2(O)c3ccccc3C=Cc3ccccc32)C1 (stereo not given), which activity, negative = inhibition is on record?
Answer: Its activity, negative = inhibition is inactive: 0.79%.

Question: With Cc1cc(C(=O)NCC2(N3CCCCC3)CCCCC2)ccc1[N+](=O)[O-] as the molecule, how does the activity, negative = inhibition read?
Answer: Its activity, negative = inhibition is inactive: 0.668%.

Question: How did the activity, negative = inhibition turn out when CCOc1cccc(C(=O)NCC2(N(C)C)CCCCC2)c1 was run?
Answer: The activity, negative = inhibition was inactive: -4.29%.

Question: For COc1ccc(C(=O)NCC2(N(C)C)CCCCC2)cc1, which activity, negative = inhibition is on record?
Answer: The activity, negative = inhibition was inactive: -0.811%.

Question: For CN(C)c1ccc(C(=O)NCC2(N(C)C)CCCCC2)cc1, which activity, negative = inhibition is on record?
Answer: The activity, negative = inhibition was inactive: 1.05%.

Question: CN(C)C1CCCC1OC(=O)C(O)(c1ccccc1)c1ccccc1 (stereo not given) was tested. Which activity, negative = inhibition did it give?
Answer: The activity, negative = inhibition was inactive: -0.621%.

Question: With Cc1ccccc1C(=O)NCC1(N2CCCCC2)CCCCC1 as the molecule, how does the activity, negative = inhibition read?
Answer: The activity, negative = inhibition was inactive: 3.12%.

Question: For CN(C)C1(CNC(=O)c2ccccc2[N+](=O)[O-])CCCCC1, which activity, negative = inhibition is on record?
Answer: The activity, negative = inhibition was inactive: -7.96%.

Question: How did the activity, negative = inhibition turn out when CCCCOc1ccccc1C(=O)NCC1(N(C)C)CCCCC1 was run?
Answer: The activity, negative = inhibition was inactive: 0.189%.

Question: How did the activity, negative = inhibition turn out when CC(C)N1C(=O)CC2(CCN(CCOC(=O)C(O)(c3ccccc3)c3ccccc3)CC2)C1=O was run?
Answer: Its activity, negative = inhibition is inactive: 3.53%.

Question: With COc1cc(SC)ccc1C(=O)NCC1(N(C)C)CCCCC1 as the molecule, how does the activity, negative = inhibition read?
Answer: Its activity, negative = inhibition is inactive: -1.75%.

Question: With CCN(CC)CC(C)C(C)OC(=O)C(O)(c1ccccc1)c1ccccc1 (stereo not given) as the molecule, how does the activity, negative = inhibition read?
Answer: Its activity, negative = inhibition is inactive: -1.79%.

Question: CN(C)C1(CNC(=O)c2cccc(Cl)c2)CCCCC1 was tested. Which activity, negative = inhibition did it give?
Answer: Its activity, negative = inhibition is inactive: -5.59%.

Question: With CN(C)C1(CNC(=O)c2ccccc2F)CCCCC1 as the molecule, how does the activity, negative = inhibition read?
Answer: The activity, negative = inhibition was inactive: 1.64%.

Question: For Cc1ccc(C(=O)NCC2(N3CCCCC3)CCCCC2)cc1, which activity, negative = inhibition is on record?
Answer: The activity, negative = inhibition was inactive: -0.674%.

Question: How did the activity, negative = inhibition turn out when O=C(NCC1(N2CCCCC2)CCCCC1)c1cc([N+](=O)[O-])ccc1Cl was run?
Answer: The activity, negative = inhibition was inactive: 4.17%.

Question: With CN1[C@@H]2CC[C@H]1CC(OC(=O)C(O)(c1ccccc1)c1ccccc1)C2 (stereo not given in full) as the molecule, how does the activity, negative = inhibition read?
Answer: The activity, negative = inhibition was inactive: 0.859%.

Question: Which activity, negative = inhibition does the source give for COc1ccc(Br)c(C(=O)NCC2(N3CCCCC3)CCCCC2)c1 here?
Answer: The activity, negative = inhibition was inactive: 23.3%.

Question: Which activity, negative = inhibition does the source give for COc1cc(C(=O)NCC2(N(C)C)CCCCC2)cc(OC)c1OC here?
Answer: The activity, negative = inhibition was inactive: -5.54%.

Question: Cc1cccc(C(=O)NCC2(N(C)C)CCCCC2)c1 was tested. Which activity, negative = inhibition did it give?
Answer: The activity, negative = inhibition was inactive: -0.694%.

Question: For CN(C)c1cccc(C(=O)NCC2(N(C)C)CCCCC2)c1, which activity, negative = inhibition is on record?
Answer: The activity, negative = inhibition was inactive: -5.03%.

Question: Which activity, negative = inhibition does the source give for O=C(OCCN1CCCC1)C(O)(c1ccccc1)c1ccccc1 here?
Answer: The activity, negative = inhibition was inactive: -3.32%.

Question: For CC(C)Oc1ccc(C(=O)NCC2(N(C)C)CCCCC2)cc1, which activity, negative = inhibition is on record?
Answer: The activity, negative = inhibition was inactive: 3% and inactive: 2.46%.

Question: With O=C(OC1CN2CCC1CC2)C(CO)(c1ccccc1)c1ccccc1 (stereo not given) as the molecule, how does the activity, negative = inhibition read?
Answer: Its activity, negative = inhibition is inactive: -0.715%.

Question: For COc1cccc(C(=O)NCC2(N3CCOCC3)CCCCC2)c1, which activity, negative = inhibition is on record?
Answer: Its activity, negative = inhibition is inactive: 20.3%.

Question: Which activity, negative = inhibition does the source give for CC(C)COc1ccc(C(=O)NCC2(N(C)C)CCCCC2)cc1 here?
Answer: The activity, negative = inhibition was inactive: 2.69%.

Question: Which activity, negative = inhibition does the source give for COc1ccc(C(=O)NCC2(N(C)C)CCCCC2)cc1Cl here?
Answer: Its activity, negative = inhibition is inactive: -3.5%.

Question: How did the activity, negative = inhibition turn out when COc1ccc(Cl)cc1C(=O)NCC1(N(C)C)CCCCC1 was run?
Answer: The activity, negative = inhibition was inactive: -0.322%.

Question: With COc1cccc(C(=O)NCC2(N3CCCCC3)CCCCC2)c1 as the molecule, how does the activity, negative = inhibition read?
Answer: Its activity, negative = inhibition is inactive: -3.99%.

Question: For O=C(NCC1(N2CCCCC2)CCCCC1)c1cccc(Cl)c1, which activity, negative = inhibition is on record?
Answer: The activity, negative = inhibition was inactive: 2.76%.

Question: CN(C)C1(CNC(=O)c2ccc(Br)cc2)CCCCC1 was tested. Which activity, negative = inhibition did it give?
Answer: The activity, negative = inhibition was inactive: -2.9%.

Question: With COc1cc(C(=O)NCC2(N(C)C)CCCCC2)c([N+](=O)[O-])cc1OC as the molecule, how does the activity, negative = inhibition read?
Answer: The activity, negative = inhibition was inactive: -7.45%.
